Target: Serotonin 3 (5-HT3) receptor (Rattus norvegicus, UniProt P35563+Q9JJ16)
Test: Binding affinity at 5-hydroxytryptamine 3 receptor in rat entorhinal cortex by [3H]BRL-43694 displacement.

Sequences of proteins named here, by UniProt entry; tags and fusion partners are left off. Residues count along the entry.
UniProt P35563, 24-483 limits assumed: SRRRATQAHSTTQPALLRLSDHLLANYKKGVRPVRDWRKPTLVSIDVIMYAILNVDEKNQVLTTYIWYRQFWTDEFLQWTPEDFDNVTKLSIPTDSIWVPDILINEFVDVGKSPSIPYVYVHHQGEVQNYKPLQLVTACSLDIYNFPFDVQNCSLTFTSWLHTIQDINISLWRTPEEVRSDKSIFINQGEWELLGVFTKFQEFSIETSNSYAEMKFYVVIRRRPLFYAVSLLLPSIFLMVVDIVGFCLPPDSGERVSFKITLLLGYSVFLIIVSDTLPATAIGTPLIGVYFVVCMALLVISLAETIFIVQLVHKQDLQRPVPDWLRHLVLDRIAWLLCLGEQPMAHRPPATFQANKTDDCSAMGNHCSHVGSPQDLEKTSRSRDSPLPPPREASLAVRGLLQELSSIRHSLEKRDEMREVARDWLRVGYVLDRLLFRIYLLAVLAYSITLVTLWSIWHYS
UniProt Q9JJ16, 22-437 limits assumed: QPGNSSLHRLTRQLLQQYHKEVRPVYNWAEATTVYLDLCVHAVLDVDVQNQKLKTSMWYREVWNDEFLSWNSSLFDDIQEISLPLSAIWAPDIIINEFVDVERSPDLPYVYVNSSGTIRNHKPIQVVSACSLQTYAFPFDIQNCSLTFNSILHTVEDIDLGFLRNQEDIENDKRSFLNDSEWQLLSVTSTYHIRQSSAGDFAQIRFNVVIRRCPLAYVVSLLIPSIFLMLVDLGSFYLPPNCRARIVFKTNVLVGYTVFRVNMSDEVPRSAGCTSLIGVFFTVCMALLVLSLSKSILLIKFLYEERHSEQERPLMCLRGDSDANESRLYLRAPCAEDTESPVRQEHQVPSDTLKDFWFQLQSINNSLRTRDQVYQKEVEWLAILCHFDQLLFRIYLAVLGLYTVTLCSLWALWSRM

Structure (SMILES) | Ki
COc1cc(N)c(Cl)cc1C(=O)O[C@@H]1CN2CCC1CC2 | 0.7 nM
COc1cc(N)c(Cl)cc1C(=O)O[C@H]1CN2CCC1CC2 | 3.6 nM

Source: ChEMBL document CHEMBL1126524, “Derivatives of quinuclidine as 5-HT3 receptor antagonists: influence of an additional carbonyl group on the recognition of chirality by the receptor” (Bioorg Med Chem Lett, 1993)
